From patent US20100075374A1, “Methods for capturing nascent proteins” (AMBERGEN, INC., priority 2007, published 2010)

Key:
[1] = biological target: T1, human recombinant ZAP-70 tyrosine kinase (Homo sapiens, UniProt P43403); test: kinase substrate profiling on photo-transferred proteins, phosphotyrosine detection; format: biochemical; settings: plus ATP kinase reaction, 30 min at 37° C.
T1 construct: purchased Invitrogen Corporation
T1 sequence (P43403 1-619): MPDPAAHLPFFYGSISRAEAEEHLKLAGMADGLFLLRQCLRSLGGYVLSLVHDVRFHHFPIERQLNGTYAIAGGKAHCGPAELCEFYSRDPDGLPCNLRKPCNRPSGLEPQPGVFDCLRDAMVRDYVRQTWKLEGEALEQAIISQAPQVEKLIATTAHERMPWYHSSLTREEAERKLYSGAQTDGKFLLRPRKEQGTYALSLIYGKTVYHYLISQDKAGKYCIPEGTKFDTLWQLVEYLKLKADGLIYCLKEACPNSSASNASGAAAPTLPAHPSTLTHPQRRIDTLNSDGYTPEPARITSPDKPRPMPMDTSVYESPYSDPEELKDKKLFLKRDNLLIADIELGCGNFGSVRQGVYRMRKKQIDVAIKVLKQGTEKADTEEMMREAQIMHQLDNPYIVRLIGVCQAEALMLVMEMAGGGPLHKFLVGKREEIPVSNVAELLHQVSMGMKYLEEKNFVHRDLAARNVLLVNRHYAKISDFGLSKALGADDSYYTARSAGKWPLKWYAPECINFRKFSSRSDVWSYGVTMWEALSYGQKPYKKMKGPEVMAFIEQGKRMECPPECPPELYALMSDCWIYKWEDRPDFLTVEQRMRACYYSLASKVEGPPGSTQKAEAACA

[2] = biological target: T2, human recombinant Src pp^60 tyrosine kinase (Homo sapiens, UniProt P12931); test: as above; format: biochemical; settings: plus ATP kinase reaction, 30 min at 37° C.
T2 construct: purchased Invitrogen Corporation

Q: For “MDM: cell-free expressed human ubiquitin-protein ligase E3 MDM2, contact photo-transferred to microarray”, which “phosphorylation by ZAP-70” value [1] is on record?
A: heavily phosphorylate

Q: And the “phosphorylation by Src pp^60” value [2]?
A: heavily phosphorylate
